# Experimental data taken from PubChem BioAssay AID687036 (The Scripps Research Institute Molecular Screening Center, 2013).
# Amino acid sequences for entries named in this document (tags omitted).
# UniProt Q99873, whole entry, looked up: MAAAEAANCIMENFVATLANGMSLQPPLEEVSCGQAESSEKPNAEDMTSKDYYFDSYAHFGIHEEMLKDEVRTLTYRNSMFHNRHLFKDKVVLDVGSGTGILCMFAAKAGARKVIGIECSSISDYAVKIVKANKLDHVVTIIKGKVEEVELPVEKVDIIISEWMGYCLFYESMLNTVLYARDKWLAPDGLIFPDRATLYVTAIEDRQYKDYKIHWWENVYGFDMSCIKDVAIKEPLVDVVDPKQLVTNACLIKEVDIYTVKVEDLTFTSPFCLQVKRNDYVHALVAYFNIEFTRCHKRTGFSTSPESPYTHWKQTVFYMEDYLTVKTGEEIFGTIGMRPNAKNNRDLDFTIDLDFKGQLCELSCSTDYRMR
# This is a selection; strong and weak results do not stand in their true shares. The source made the active and inactive calls.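 How the source made its calls: active means mean inhibition across replicates above the hit cutoff derived for the earlier primary screen (cut at about 22% in these data); inactive means the rest.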
# Biological target: Protein arginine N-methyltransferase 1 (Homo sapiens) (UniProt Q99873)
# Assay: PRMT1 methyltransferase inhibitors, confirmation, biochemical, fluorescence polarization, triplicate (AID 687036)
# Details: recombinant His-PRMT1, activity-based probe fluorescence polarization; at 2.79 µM; hits give high values
row,Compound,inhibition
1,Cc1cc(SC(NC=O)C(Cl)(Cl)Cl)ncn1 (stereo unspecified),active: 45.2%
2,CC(C)(C)C(=O)NC(Sc1ncccn1)C(Cl)(Cl)Cl (stereo unspecified),inactive: 2.62%
3,COc1ccc(C2=NCC(CBr)S2)cc1 (stereo unspecified),active: 38.3%
4,CC(C)(C)C(=O)NC(Sc1ccncn1)C(Cl)(Cl)Cl (stereo unspecified),inactive: 7.31%
5,Cc1cc(SC(NC(=O)c2ccc(F)cc2)C(Cl)(Cl)Cl)ncn1 (stereo unspecified),active: 58.4%
6,O=C(NC(Sc1ccncn1)C(Cl)(Cl)Cl)c1ccccc1 (stereo unspecified),inactive: 14.1%
